# Laboratory results from patent US5639873A, “Oligothionucleotides” (Centre National de la Recherche Scientifique (CNRS), priority 1992, dated 1997).
# Test system: 3'-exonuclease snake venom phosphodiesterase
# Assay type: in vitro ADME
# Description: Study of the substrate-type activities of hexamers 4'-SrU6, 4'-SrU6 -3'n-prOH compared with the substrate characteristics of the hexamers βrU6 and αrU6 in relation to various purified nucleases.
# Snake venom phosphodiesterase (VSP) is a 3'-exonuclease-3' which liberates nucleotides 5'-phosphate after degrading the oligomer by its 3' end.
# These four enzymes were obtained from Boehringer Mannheim.
# Generally, one optical density unit at 260 nm of each hexamer is brought into contact with a certain concentration of the enzyme considered and is then diluted in a sufficient quantity for 1000 μl of enzymatic digestion buffer.
# Various digestion buffers were used depending on the nature of the enzyme (Table 9).
# The stock sample is divided into 10 fractions of 100 μl before being frozen at -18° C.
# One aliquot fraction of 100 μl is collected and incubated in a dry oven thermostated at 37° C. for a time t and is then analyzed by analytical HPLC.
# The study of the surface area of the signal corresponding to the hexamer makes it possible to measure a kinetics of degradation whose half-life period is calculated (Table 10).
substance,measurement,setting,value
4'-Sr-(U-U-U-U-U-U-3'-P-CH2 -CH2 -OH) [βSrU6 3'(CH2)3 OH],Half-life period,"Table 10, VSP 6 × 10^-4 units/ml, pH 9.4, 37° C.",4.17 h
same,resistance to the 3'-exonuclease (in words),propanol phosphodiester bond at the 3' end,greatly increased
